Values quoted from earlier work as cited in paper PMC5903241 (British Journal of Clinical Pharmacology, 2018).

Conditions: twice-daily (b.i.d.) dosing; sacubitril/valsartan and its analytes; cited from earlier work

sacubitril/valsartan
time to reach steady state: ≤ 3 days
